Test results reported in patent US20130209439A1, “INHIBITORS OF PDE4 BINDING TO HSP20” (THE UNIVERSITY COURT OF THE UNIVERSITY OF GLASGOW, priority 2010, published 2013).

Tests used:
[1] = system: pS16-Hsp20 in SH-SY5Y cells; assay: Cell based Hsp20-PDE4D disruptor assay, nucleofected SH-SY5Y cells, pS16-Hsp20 Western blot; set-up: species or system human; conditions: SH-SY5Y cells nucleofected with 500 μM peptide, 2 hours
Method: FIG. 9. Disrupter induced HSP20 phosphorylation SH-SY5Y cells nucleofected with 500 μM of each peptide and incubated for 2 hours prior to harvesting. Each assay was blotted for Hsp20, pS16-Hsp20 and tubulin. Changes in levels of phospho-Hsp20 relative to DMSO only controls were quantified through densitometry analysis and each assay was normalised to α-tubulin loading control. The results are the average of three separate experiments and error bars represent SEM. *=p<0.05, **=p<0.01 compared to DMSO only controls (Student-T-test)
SDS-PAGE analysis was done on NuPage® pre-cast gels X-cell apparatus (Invitrogen, Paisley) using MES-SDS running buffer, Samples were reduced in Laemmli 2× loading buffer (4% SOS) with 5% β-mercaptoethanol. For Western Blotting (WB) analysis, samples were transferred using NuPage® X-cell blotting module onto a nitrocellulose membrane. Membranes were blocked using 5% Milk in 1×TBST (w/v). Antibodies were incubated in 1% milk in 1×TBST (w/v) for either 1 hour at room temperature or overnight at 4° C. Signals were detected using enhanced chemiluminescence system (Pierce) and developed on an X-omat film developer. Subsequent densitometry analysis was carried out using Quantity One (Bio-Rad). […]

His-Hsp20 = molecular target: T1, His-Hsp20 (Homo sapiens, UniProt O14558); assay: SPOT peptide array overlaid with His-Hsp20; assay type: binding; conditions: overlay with 10 μg/ml purified His-Hsp20
T1 construct: made in house; host or cells: E. coli BL21
T1 sequence (O14558 1-160): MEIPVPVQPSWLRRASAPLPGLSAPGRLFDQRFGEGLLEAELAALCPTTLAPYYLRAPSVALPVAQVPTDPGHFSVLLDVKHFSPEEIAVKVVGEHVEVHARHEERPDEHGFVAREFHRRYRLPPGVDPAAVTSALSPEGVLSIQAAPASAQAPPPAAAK
Method: A variety of peptides were generated and SPOT-synthesised onto slides which were then overlaid with 10 μg/ml of purified His-Hsp20. Interaction with peptides and Hsp20 was evaluated by probing slides with anti-His or Hsp20 antibodies and analysed using enhanced chemi-luminescence techniques, Negative controls used anti-His antibody only with no overlay of His-Hsp20 protein (data not shown). Positive interaction domains were then subjected to further rounds of truncations and key endogenous residues were substituted for non-native residues to ascertain what effects this would have in the binding of Hsp20.
This was done as described in detail elsewhere^41.
PDE4 isoform localisation invariably depends on protein-protein interactions, with PDE4s shown to associate with a diverse group of interacting partners such as RACK1^32, 36, βarrestin^36, β1-Ar^37, DISC1^38, the p75 neurotrophin receptor^39 and the cardiac IKs potassium channel^40. One method that has been pivotal in mapping the sites of association between PDE4s and their binding partners is peptide array^36. SPOT immobilised peptide libraries of PDE4 sequences have been utilised to accurately predict binding domains for partner proteins. Here we have employed this novel technique to define the HSP20 binding site within the sequence of PDE4D5, an isoform that is endogenously expressed in cardiomyocytes. […]

Ac-TK-NH2 [Peptide 8]
pS16-Hsp20 levels relative to DMSO only controls [1]: significant increase in pS16-Hsp20 levels | binding of Hsp20 to peptide on array (His-Hsp20): still retaining the ability to bind Hsp20
